# Experimental data reported in ChEMBL document CHEMBL5584231, “Rational design of a new short anticancer peptide with good potential for cancer treatment” (Eur J Med Chem, 2024).
# Test: Cytotoxicity against RG cells (unknown origin) assessed as inhibition of cell growth incubated for 1 hr by MTT assay
# Assay type: functional, cell-based
smiles,measurement,value
CC[C@H](C)[C@H](NC(=O)CN)C(=O)NCC(=O)N[C@@H](C)C(=O)N[C@H](C(=O)N[C@@H](CC(C)C)C(=O)N[C@@H](CCCCN)C(=O)N[C@H](C(=O)N[C@@H](CC(C)C)C(=O)N[C@H](C(=O)N[C@H](C(=O)NCC(=O)N[C@@H](CC(C)C)C(=O)N1CCC[C@H]1C(=O)N[C@@H](C)C(=O)N[C@@H](CC(C)C)C(=O)N[C@H](C(=O)N[C@@H](CO)C(=O)N[C@@H](Cc1c[nH]c2ccccc12)C(=O)N[C@H](C(=O)N[C@@H](CCCCN)C(=O)N[C@@H](CCCNC(=N)N)C(=O)N[C@@H](CCCCN)C(=O)N[C@@H](CCCNC(=N)N)C(=O)N[C@@H](CCC(N)=O)C(=O)N[C@@H](CCC(N)=O)C(N)=O)[C@@H](C)CC)[C@@H](C)CC)[C@@H](C)O)[C@@H](C)O)C(C)C)C(C)C [MELITTIN],IC50,1.56 µM
